Values quoted from earlier work in patent US10927398B2, “Compositions for CYP450 phenotyping using saliva samples” (Concordia University, Inc., priority 2015, dated 2021).

Tested on: CYP450 enzymes
Conditions: cited from earlier work

For `CN(C)CCCN1c2ccccc2CCc2ccccc21` [Imipramine], the METABOLISM is given as 2C19, 2D6.
